Measurements reported in patent publication US9789082B2, “Somatostatin receptor subtype 4 (SSTR4) agonists” (Centrexion Therapeutics Corporation, priority 2013, dated 2017).

Sequences of proteins named here, by UniProt entry; tags and fusion partners are left off.
UniProt P31391, whole entry: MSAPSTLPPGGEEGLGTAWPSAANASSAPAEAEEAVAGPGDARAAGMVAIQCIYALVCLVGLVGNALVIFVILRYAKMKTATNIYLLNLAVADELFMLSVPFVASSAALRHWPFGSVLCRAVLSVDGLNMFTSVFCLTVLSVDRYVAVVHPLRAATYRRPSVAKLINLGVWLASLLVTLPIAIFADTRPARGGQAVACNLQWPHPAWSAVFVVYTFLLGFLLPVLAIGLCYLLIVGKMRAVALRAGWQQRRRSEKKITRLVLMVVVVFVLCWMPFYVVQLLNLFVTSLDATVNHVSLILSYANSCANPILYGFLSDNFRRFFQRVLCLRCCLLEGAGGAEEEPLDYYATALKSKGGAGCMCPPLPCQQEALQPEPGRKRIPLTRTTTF

What was measured:
[1] = biological target: human Somatostatin 4 receptor (SSTR4) (Homo sapiens (Human), UniProt P31391); assay: cAMP assay with human somatostatin 4 receptor (hSSTR4 expressing H4 cells); type: cell-based; settings: read-out: SSTR4 agonism EC50, tested form: HCl
[2] = Metabolic stability in pooled human liver microsomes (half-life); settings: 37° C., 1 μM test compound

Structure (SMILES): Cc1cc2nc(C)ccc2c(C(C)(C)NC(=O)[C@H]2[C@@H]3CNC[C@@H]32)n1
- EC50 [1]: 34.7 nM

Structure (SMILES): Cc1cccn2c(C(C)(C)NC(=O)[C@H]3[C@@H]4CNC[C@@H]43)nc(C)c12
- Half-life t1/2 [2]: >2.17 h
